Assay results published in US10294218B2 (VIROSTATICS SRL, priority 2012, dated 2019).
pIC50: −log10 of the molar value.

System: Primary T cells
Test: Antiproliferative activity (AP), mitotic index by flow cytometry
Assay type: cell-based
Settings: T-cell, read-out: AP50 (Inhibitory concentration 50% for antiproliferative capacity)

COc1ccc(Nc2cc(-c3ccccc3OC)ncn2)cc1CN(C)C [Example 35, N-(3-((Dimethylamino)methyl)-4-methoxyphenyl)-6-(2-methoxyphenyl)pyrimidin-4-amine]
pIC50: 5.66
